The text below walks through data of PMC4207771, “Identification and Characterization of Novel Renal Sensory Receptors” (PLoS ONE, 2014).

“Also recorded” adds a separate entry of the source.

The target of experiment [1] is T1, Olfr691 (Mus musculus, UniProt Q8VGW5).
T1 construct: Lucy (N); expressed in transfected cells; host or cells: HEK293T, co-transfected with RTP1S
T1 sequence (Q8VGW5 1-322): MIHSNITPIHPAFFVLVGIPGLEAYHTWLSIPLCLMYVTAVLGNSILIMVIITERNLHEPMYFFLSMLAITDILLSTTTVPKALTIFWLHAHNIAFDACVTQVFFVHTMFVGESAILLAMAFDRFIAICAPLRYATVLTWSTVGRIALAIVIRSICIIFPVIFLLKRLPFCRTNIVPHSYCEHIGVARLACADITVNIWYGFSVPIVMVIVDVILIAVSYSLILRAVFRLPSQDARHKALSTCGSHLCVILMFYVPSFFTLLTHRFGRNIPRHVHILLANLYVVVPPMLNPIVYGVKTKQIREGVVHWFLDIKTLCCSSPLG
As to the kind of experiment: dual-luciferase (cAMP/CREB reporter) ligand screen, Olfr691 in HEK293T cells. Type of experiment: cell-based. Also on record: key to Olfr691 response in dual-luciferase assay: ‘+’ or ‘–‘ in each column indicates if the olfactory receptor responded or had no effect to that specific chemical; -: ‘+’ or ‘–‘ in each column indicates if the olfactory receptor responded or had no effect to that specific chemical.

A further experiment has as its target T2, Olfr31 (Mus musculus, UniProt Q3KPA7).
T2 construct: expressed in transfected cells; host or cells: HEK293T, co-transfected with RTP1S
T2 sequence (Q3KPA7 1-317): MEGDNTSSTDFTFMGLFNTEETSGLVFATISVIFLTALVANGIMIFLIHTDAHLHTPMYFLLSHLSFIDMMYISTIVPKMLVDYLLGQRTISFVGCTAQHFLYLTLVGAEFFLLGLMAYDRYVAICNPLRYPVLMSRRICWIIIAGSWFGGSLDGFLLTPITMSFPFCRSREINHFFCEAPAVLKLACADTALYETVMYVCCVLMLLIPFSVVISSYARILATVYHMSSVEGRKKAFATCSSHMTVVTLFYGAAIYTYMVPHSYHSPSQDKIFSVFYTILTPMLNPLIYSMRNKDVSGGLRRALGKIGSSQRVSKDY
As to the kind of experiment: dual-luciferase (cAMP/CREB reporter) ligand screen, Olfr31 in HEK293T cells. The format is cell-based. To be noted: chemicals tested individually, screened at 500uM (* also at 100uM). Also on record: key: ‘+’ or ‘–‘ in each column indicates if the olfactory receptor responded or had no effect to that specific chemical; -: ‘+’ or ‘–‘ in each column indicates if the olfactory receptor responded or had no effect to that specific chemical.

In experiment [2] the target is T1, Olfr691. Also on record: method as in PMID 15550249. To be noted: cited from earlier work.

With `CC(C)CC(=O)O` [isovaleric acid], the “Relative response at 0.5mM” value at Olfr691 [1] (0.5 mM ligand, normalized to the response of Olfr691 to the strongest ligand, 4-pentenoate, listed as Isovalerate) stood at 73 ± 4.8. The “Olfr691 response in dual-luciferase assay” value on Olfr691 [1] (chemicals tested individually, screened at 500uM (* also at 100uM)) was “+”. On Olfr691 [1] (luciferase assay, co-expressed with RTP1S, listed as isovalerate), the “Olfr691 response (in words)” value is “dose dependent manner; also recorded: able to confirm”. Further, the “Olfr31 response in dual-luciferase assay” value at Olfr31 was “-”. For the same compound, the “previously reported ligand of Olfr691” value on Olfr691 [2] is “previously reported”.
